Among the data in patent US9187441B2, “p53-Mdm2 antagonists” (University of Pittsburgh—Of the Commonwealth System of …, priority 2010, dated 2015) are Ki values, retold here.

By UniProt entry, the sequences of proteins in these tests, tags left out.
UniProt Q00987, whole entry: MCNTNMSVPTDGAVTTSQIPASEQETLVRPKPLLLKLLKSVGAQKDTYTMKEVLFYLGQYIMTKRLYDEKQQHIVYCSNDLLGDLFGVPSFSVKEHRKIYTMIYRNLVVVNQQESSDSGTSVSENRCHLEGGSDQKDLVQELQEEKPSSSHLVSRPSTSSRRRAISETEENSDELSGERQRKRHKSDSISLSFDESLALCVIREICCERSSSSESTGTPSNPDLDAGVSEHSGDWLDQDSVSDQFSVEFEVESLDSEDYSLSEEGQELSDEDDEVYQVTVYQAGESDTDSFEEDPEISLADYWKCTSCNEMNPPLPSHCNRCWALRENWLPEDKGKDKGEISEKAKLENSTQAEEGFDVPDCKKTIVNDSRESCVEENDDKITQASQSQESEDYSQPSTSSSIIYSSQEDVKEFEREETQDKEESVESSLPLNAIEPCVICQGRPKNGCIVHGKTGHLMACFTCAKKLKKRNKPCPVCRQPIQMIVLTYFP

In this experiment the target is Mdm2 (Homo sapiens (Human), UniProt Q00987). The experiment is described as follows: Fluorescence polarization (FP) competition binding assay with Mdm2. As to conditions: Table 8, Formula II compounds, measured by FP. Background: In fluorescence polarisation assays a small probe gives low polarisation when free and higher when bound to something large.

As to `CC(C)CC(NC(C(=O)NCc1ccccc1)c1c(C(=O)O)[nH]c2cc(Cl)ccc12)C(=O)N1CCOCC1` (stereo not shown), the Ki worked out at 2000 nM. In other words, the single-digit micromolar range.

In general, Ki refers to a dissociation constant, usually derived from enzyme kinetics or from competition with a known ligand. A higher Ki goes with weaker binding.
